We go through one compound from US20180147301A1, “SOLID ORAL COMPOSITION CONTAINING DYES” (COSMO TECHNOLOGIES LTD., priority 2016, published 2018).

Chains of the proteins cited; added tags and fusions are not shown. Lines headed by an entry give the natural chain unless they say otherwise; changes in a name come on top.
UniProt Q8TCC7: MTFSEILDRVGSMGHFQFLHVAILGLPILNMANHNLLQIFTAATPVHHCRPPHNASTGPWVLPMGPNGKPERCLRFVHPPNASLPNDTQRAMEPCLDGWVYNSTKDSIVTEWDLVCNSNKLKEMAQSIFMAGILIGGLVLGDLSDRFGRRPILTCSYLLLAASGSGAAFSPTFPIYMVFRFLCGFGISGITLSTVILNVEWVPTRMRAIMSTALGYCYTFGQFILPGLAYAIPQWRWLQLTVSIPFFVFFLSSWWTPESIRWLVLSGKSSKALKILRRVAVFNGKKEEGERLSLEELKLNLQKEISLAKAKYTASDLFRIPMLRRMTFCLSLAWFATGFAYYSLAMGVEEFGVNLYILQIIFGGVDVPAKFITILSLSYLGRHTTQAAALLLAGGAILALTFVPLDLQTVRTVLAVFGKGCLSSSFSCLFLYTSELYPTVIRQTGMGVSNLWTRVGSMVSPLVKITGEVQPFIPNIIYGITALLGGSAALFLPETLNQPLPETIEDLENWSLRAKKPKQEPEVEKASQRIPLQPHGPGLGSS

This data set has as its target OAT3 (Homo sapiens, UniProt Q8TCC7). Conditions: in vitro.

On to `CN(C)c1ccc2nc3ccc(=[N+](C)C)cc-3sc2c1` [Methylene blue, Methylthioninium Chloride (Methylene Blue)], for which the “substrate of membrane transport protein OAT3” value is given as “possible substrate”.
